For the test, the target named is human β3 adrenergic receptor (Homo sapiens, UniProt P13945). In words: Functional Assay: cAMP production in CHO cells stably transfected with cloned β3-adrenergic receptor (LANCE). The note with it: read-out: Human β3 EC50, CHO cells expressing β3 receptor, range classes, tested form: trifluoroacetate. As to the method:
Functional Assay: cAMP production in response to ligand is measured according to Barton et al (1991, Agonist-induced desensitization of D2 dopamine receptors in human Y-79 retinoblastoma cells. Mol. Pharmacol. […]) modified as follows. cAMP production is measured using a homogenous time-resolved fluorescence resonance energy transfer immunoassay (LANCE™, Perkin Elmer) according to the manufacture's instructions. Chinese hamster ovary (CHO) cells, stably transfected with the cloned β-adrenergic receptor (β1, β2 or β3) are harvested after 3 days of subculturing. Harvesting of cells is done with Enzyme-free Dissociation Media (Specialty Media). Cells are then counted and resuspended in assay buffer (Hank's Balanced salt solution supplemented with 5 mM HEPES, 0.1% BSA) containing a phosphodiesterase inhibitor (IBMX, 0.6 mM). […] The assay plate is then incubated for 1 hour at room temperature and time-resolved fluorescence measured on a Perkin Elmer Envision reader or equivalent. The unknown cAMP level is determined by comparing fluorescence levels to a cAMP standard curve.
The non-selective, full agonist β-adrenergic ligand isoproterenol is used at all three receptors to determine maximal stimulation. […] Data are analyzed using Microsoft Excel and Graphpad Prism or an internally developed data analysis software package.
In general terms: Cyclic AMP is a second messenger, typically raised through Gs and lowered through Gi signalling.

Protein sequences, listed by entry. Tags and fused reporters are not part of them.
UniProt P13945, whole entry: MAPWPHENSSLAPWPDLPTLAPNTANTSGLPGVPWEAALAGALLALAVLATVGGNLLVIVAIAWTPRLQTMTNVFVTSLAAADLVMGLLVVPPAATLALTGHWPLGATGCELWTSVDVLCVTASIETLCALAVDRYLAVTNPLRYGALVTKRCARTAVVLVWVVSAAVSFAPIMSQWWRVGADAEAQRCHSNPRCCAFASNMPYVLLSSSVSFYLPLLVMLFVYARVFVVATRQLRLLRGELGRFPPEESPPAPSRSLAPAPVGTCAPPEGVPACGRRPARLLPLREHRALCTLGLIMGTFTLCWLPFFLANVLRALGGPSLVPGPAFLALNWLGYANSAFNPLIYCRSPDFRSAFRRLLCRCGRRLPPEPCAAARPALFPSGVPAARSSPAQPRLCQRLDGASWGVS

A word on the EC50: it is the concentration giving half of the maximal effect.

On to `Cc1nn(CC(=O)Nc2ccc(C[C@@H]3CC[C@H]([C@H](O)COc4ccccc4)N3)cc2)c(=O)c2ccccc12`, for which the concentration for a half-maximal effect (EC50) is under 1 nM.
With `O=C(Cn1cc2ccccc2n1)Nc1ccc(C[C@@H]2CC[C@H]([C@H](O)COc3ccccc3)N2)cc1` the figure was 1 to 10 nM.
